Earlier results as cited in patent US20250177405A1, “METHODS OF TREATING NEUROLOGICAL AND CARDIOVASCULAR CONDITIONS” (ASTROCYTE PHARMACEUTICALS, INC., priority 2021, published 2025).

Sequences of proteins named here, by UniProt entry; tags and fusion partners are left off.
UniProt P30543, whole entry: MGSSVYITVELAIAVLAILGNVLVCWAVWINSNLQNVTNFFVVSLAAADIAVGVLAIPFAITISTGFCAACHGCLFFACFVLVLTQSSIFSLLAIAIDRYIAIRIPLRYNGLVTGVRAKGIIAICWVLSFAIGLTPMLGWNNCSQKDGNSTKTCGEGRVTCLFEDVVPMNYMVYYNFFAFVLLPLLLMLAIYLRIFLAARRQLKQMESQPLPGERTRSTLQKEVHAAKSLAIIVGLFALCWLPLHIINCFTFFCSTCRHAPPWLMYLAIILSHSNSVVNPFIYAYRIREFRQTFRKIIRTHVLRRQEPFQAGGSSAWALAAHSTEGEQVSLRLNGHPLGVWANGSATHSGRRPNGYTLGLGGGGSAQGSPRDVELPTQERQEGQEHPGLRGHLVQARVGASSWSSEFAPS

Target: A2a (Rattus norvegicus, UniProt P30543)
Settings: read-out: A2a affinity; cited from earlier work

For C[C@H](Cc1ccccc1)Nc1ncnc2c1ncn2[C@@H]1O[C@H](CO)[C@@H](O)[C@H]1O [Compound I-25, N^6-(L-2-Phenylisopropyl)adenosine], the Ki is listed as 220 nM.
